From patent publication US10208037B2, “Toll-like receptor-7 and -8 modulatory 1H imidazoquinoline derived compounds” (The University of Kansas, priority 2011, dated 2019)

Molecular target: T1, TLR7 (Homo sapiens, UniProt Q9NYK1)
T1 construct: expressed in transfected cells; host or cells: HEK293 (HEK-Blue-7 cells)
T1 sequence (Q9NYK1 27-1049): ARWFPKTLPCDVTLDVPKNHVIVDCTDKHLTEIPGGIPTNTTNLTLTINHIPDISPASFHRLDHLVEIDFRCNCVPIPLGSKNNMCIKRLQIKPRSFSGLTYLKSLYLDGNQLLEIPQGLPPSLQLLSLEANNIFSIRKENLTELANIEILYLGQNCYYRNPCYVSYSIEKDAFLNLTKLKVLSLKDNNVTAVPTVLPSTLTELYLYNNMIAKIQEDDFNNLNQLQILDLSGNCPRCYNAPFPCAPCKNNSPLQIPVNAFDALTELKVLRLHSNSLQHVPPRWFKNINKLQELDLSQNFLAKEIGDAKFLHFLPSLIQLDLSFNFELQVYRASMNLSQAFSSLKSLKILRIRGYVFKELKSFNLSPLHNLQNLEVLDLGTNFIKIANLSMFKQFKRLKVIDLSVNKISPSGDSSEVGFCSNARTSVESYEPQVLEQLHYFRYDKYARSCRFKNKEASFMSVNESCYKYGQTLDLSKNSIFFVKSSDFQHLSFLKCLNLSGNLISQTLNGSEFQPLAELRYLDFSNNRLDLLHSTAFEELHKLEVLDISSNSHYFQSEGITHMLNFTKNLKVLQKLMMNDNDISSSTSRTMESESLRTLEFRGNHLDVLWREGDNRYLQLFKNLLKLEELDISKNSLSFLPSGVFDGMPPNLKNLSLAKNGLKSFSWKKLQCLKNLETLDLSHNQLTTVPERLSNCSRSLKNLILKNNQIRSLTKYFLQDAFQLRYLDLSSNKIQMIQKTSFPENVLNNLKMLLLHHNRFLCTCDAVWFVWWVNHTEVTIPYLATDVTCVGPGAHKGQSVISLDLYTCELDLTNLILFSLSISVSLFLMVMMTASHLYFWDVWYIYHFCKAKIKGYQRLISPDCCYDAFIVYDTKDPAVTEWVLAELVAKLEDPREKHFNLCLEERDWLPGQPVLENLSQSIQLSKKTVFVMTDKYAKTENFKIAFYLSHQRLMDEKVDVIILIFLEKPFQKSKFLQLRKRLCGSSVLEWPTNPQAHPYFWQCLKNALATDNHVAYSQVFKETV
Assay: TLR7 reporter gene assay (NF-κB induction, HEK-Blue-7 cells), agonism
Type: cell-based
Conditions: read-out: EC50 (agonistic activity)
Excerpt: NF-κB induction: The induction of NF-κB was quantified using HEK-Blue-7 cells and HEK-Blue-8 cells as previously described by us.^8,24 HEK293 cells were stably transfected with human TLR7 (or human TLR8), MD2, and secreted alkaline phosphatase (sAP), and were maintained in HEK-Blue™ Selection medium containing zeocin and normocin. Stable expression of secreted alkaline phosphatase (sAP) under control of NF-κB/AP-1 promoters is inducible by the TLR7 (or TLR8) agonists, and extracellular sAP in the supernatant is proportional to NF-κB induction. HEK-Blue cells were incubated at a density of […] in a volume of 80 μL/well, in 384-well, flat-bottomed, cell culture-treated microtiter plates until confluency was achieved, and subsequently graded concentrations of stimuli. sAP was assayed spectrophotometrically using an alkaline phosphatase-specific chromogen (present in HEK-detection medium as supplied by the vendor) at 620 nm.
The induction of NF-κB was quantified using HEK-Blue-3, HEK-Blue-7 and HEK-Blue-8 cells as previously described by us.^8,24,51 HEK293 cells were stably transfected with human TLR3 (or human TLR7 or human TLR8), MD2, and secreted alkaline phosphatase (sAP), and were maintained in HEK-Blue™ Selection medium containing zeocin and normocin. […]

CCCCc1nc2c(N)nc3ccccc3c2n1Cc1cccc(CN)c1 [Compound 7c, 1-(3-(Aminomethyl)benzyl)-2-butyl-1H-imidazo[4,5-c]quinolin-4-amine]
EC50: 110 nM
